## AlphaSeq binding of Ab-14 light chain variants to a spike HR2 peptide

The target is the same throughout: PDVDLGDISGINAS, from the HR2 region of SARS-CoV-2 spike.

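The starting antibody came from a phage panning campaign against this peptide. The library (AAYL50) carries one to three amino acid substitutions per variant, with no insertions or deletions. In AlphaSeq, yeast of one mating type display the scFv and yeast of the other type display the target. Pairs that bind mate more often; barcode pairs of the diploids are counted by sequencing. Each replicate has its own calibration line, from reference interactions of the BCL2 family. Mating was done three times.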

Parent scFv Ab-14: VH joined to VL by a 15-residue (Gly4Ser)3 linker. Changes lie in the light chain CDRs alone.
VH: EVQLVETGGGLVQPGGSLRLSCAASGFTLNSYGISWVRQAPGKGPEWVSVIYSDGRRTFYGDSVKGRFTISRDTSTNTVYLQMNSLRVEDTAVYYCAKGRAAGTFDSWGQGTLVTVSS
VL: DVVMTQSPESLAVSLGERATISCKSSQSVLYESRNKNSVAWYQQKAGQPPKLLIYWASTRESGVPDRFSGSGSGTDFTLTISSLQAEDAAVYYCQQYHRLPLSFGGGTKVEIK

Changes read parent residue, position, new residue, counted from the first residue of the VL shown.
Scale: log10 of Kd in nM, estimated from mating counts; low values are strong binders.
Where no diploid with the target was found in that replicate, the entry reads "nd": below detection, most likely a poor binder, though not proof of it.
Background: pairings of library AAYL50 with three empty control strains gave a value in 18% of cases (median 4.19, 5th percentile 2.99). Values in that range, when seen in few replicates, are hard to tell from nonspecific mating. Also given: how often the same scFv was detected with the empty control strains.

Variant V29A Y31W Q95I gave nd, 3.70, nd (controls 1 of 9).
Variant L30H K36D S38T gave 2.57, 2.71, 2.96 (controls 3 of 9).
Variant L30E E32L S38C gave 2.19, 2.29, 1.99 (controls 2 of 9).
Variant S26E H98D R99D gave nd, nd, nd (controls 1 of 9).
Variant R60Q P101A L102Q gave nd, nd, 5.20 (controls 3 of 9).
Variant N35C T59I E61P gave 2.65, 2.76, 3.16 (controls 1 of 9).
Variant S25Q Y31P L102C gave 0.57, 0.92, 0.92 (controls 6 of 9).
Variant Q27Y S62K gave 2.43, 0.86, 1.54 (controls 0 of 9).
Variant Q27Y V29H L100E gave nd, nd, 5.38 (controls 2 of 9).
Variant S38T S58Y Q95T gave nd, nd, nd (controls 0 of 9).
Variant S25L E32L E61A gave -0.13, 0.17, -0.10 (controls 7 of 9).
Variant T59R E61P H98P gave nd, 2.99, nd (controls 4 of 9).
Variant E32S N35G S58V gave 2.54, 2.09, 2.18 (controls 2 of 9).
Variant N37M L102C gave nd, nd, nd (controls 0 of 9).
Variant Q27D A40S W56T gave nd, nd, nd (controls 3 of 9).
Variant N35E gave nd, nd, nd (controls 0 of 9).
Variant N37D A40K Q95T gave nd, nd, nd (controls 0 of 9).
Variant V29I Y31R gave 1.68, 1.57, 1.94 (controls 3 of 9).
Variant S33Q N37V E61K gave 5.89, nd, nd (controls 3 of 9).
Variant E32A S33Q A40I gave nd, nd, nd (controls 3 of 9).
Variant Y31L S38G S62I gave 1.98, 1.78, 2.08 (controls 2 of 9).
Variant Q27T K36T H98R gave 0.55, 0.74, 0.61 (controls 3 of 9).
Variant S26H S58I T59W gave 4.82, 3.22, nd (controls 3 of 9).
Variant V29H S38I W56N gave 0.64, 0.80, 0.61 (controls 1 of 9).
Variant S28C S33T Q95I gave 2.27, 2.68, 2.10 (controls 2 of 9).
Variant W56P A57V L100S gave nd, 3.52, nd (controls 0 of 9).
Variant S25E A57W L102F gave nd, 3.65, 6.02 (controls 2 of 9).
Variant W56V E61L S62N gave nd, nd, nd (controls 0 of 9).
Variant V29Q E32S R60Y gave nd, nd, nd (controls 0 of 9).
Variant A40T T59P Q96Y gave nd, nd, nd (controls 2 of 9).
Variant S26Y V39P A57R gave nd, nd, 4.47 (controls 2 of 9).
Variant S25G E32D N37K gave 1.26, 1.48, 1.62 (controls 1 of 9).
Variant S33H N35M W56Q gave 0.40, 0.65, 0.52 (controls 5 of 9).
Variant Q27F N35K Q96A gave nd, nd, nd (controls 0 of 9).
Variant S33M Q96T H98R gave 3.13, 2.73, nd (controls 2 of 9).
Variant Q27F E61C Y97I gave 4.07, 2.48, 3.13 (controls 2 of 9).
Variant V39A S58N Q95K gave 4.72, nd, nd (controls 4 of 9).

Extract of 3 entries:

changes,log10 Kd (nM) by replicate,control signals
N35E,"nd, nd, nd",0/9
S25E A57W L102F,"nd, 3.65, 6.02",2/9
N37M L102C,"nd, nd, nd",0/9

For reference, the parent read 0.65 as the reference entry and 1.68 as a member of this library.

The measurements come from Engelhart et al. 2022 (doi:10.1038/s41597-022-01779-4) through the FLAb antibody collection.